# Laboratory results as given in PubChem BioAssay AID686940 (The Scripps Research Institute Molecular Screening Center, 2013).
# Amino acid sequences for entries named in this document (tags omitted).
# UniProt P24468, whole entry: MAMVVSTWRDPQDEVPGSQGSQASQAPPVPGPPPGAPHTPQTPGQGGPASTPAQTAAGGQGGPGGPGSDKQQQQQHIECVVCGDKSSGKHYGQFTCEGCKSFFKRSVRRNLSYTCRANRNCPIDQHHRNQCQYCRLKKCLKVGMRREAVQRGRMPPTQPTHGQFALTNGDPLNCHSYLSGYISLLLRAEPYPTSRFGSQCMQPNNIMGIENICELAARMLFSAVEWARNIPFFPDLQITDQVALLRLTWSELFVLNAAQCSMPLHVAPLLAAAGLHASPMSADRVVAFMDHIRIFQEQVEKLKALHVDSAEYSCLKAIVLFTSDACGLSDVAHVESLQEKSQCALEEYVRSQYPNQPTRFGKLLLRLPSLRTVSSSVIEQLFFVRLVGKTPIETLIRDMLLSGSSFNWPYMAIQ
# Only a part is listed here, and it is no random draw. The source made the active and inactive calls.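 How the source made its calls: active means inhibition above a per-plate cutoff, mean inhibition of test wells between control levels plus 3 SD (cut at about 38% in these data); inactive means the rest.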
# Molecular target: COUP transcription factor 2 (Homo sapiens) (UniProt P24468)
# Assay: COUP-TFII reporter suppression in human cells – cell-based, luciferase reporter, HEK293T, luminescence, primary screen (AID 686940);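 further: cells cotransfected with COUP-TFII expression vector driving the NGFI-A reporter; 0% = median of COUP-TF2 test wells and 100% = reporter-only cells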
# Conditions: HEK293T NGFI-A luciferase reporter, at 8.6 µM, active compounds read high
row,Compound,inhibition
1,CCOP(C)(=S)SCC(=O)NC(C)C(=O)O (stereo not given),inactive: 3.16%
2,O=[N+]([O-])c1cc([N+](=O)[O-])c(O)c([N+](=O)[O-])c1.c1ccc(Oc2ccncc2)cc1,inactive: -17.8%
3,CCOC(=O)c1ccc(NP(C)(=O)Oc2ccc(OC)cc2)cc1 (stereo not given),inactive: 3.56%
4,Cc1cc(C)cc(OP(C)(=O)Nc2ccc(SC(F)(F)F)cc2)c1 (stereo not given),inactive: -8.3%
5,CP(=O)(NC(=O)Nc1ccccc1)Oc1ccccc1 (stereo not given),inactive: -5.01%
6,CCc1ccc(OP(C)(=O)N2CCN(c3ccc([N+](=O)[O-])cc3)CC2)cc1 (stereo not given),inactive: 6.29%
7,CP(=O)(Oc1ccccc1)OC(c1ccccc1)C(F)(F)F (stereo not given),inactive: 20.9%
8,CP(=O)(Nc1ccc(SC(F)(F)F)cc1)Oc1ccc(Cl)cc1 (stereo not given),inactive: 20.8%
9,Cc1cccc(C)c1OP(C)(=O)Nc1ccc(SC(F)(F)F)cc1 (stereo not given),inactive: -20.3%
10,COc1ccccc1-c1ccccn1.O=[N+]([O-])c1cc([N+](=O)[O-])c(O)c([N+](=O)[O-])c1,inactive: -0.37%
11,CCN(CC)CCCOC(=O)C(O)(c1ccccc1)c1ccccc1,inactive: -11.6%
12,COc1ccc(OP(C)(=O)Nc2cccc(F)c2)cc1 (stereo not given),inactive: 2.25%
13,COc1ccccc1OP(C)(=O)Nc1cc(Cl)ccc1C (stereo not given),inactive: -11.2%
14,Cc1cc(C)cc(OP(C)(N)=O)c1 (stereo not given),inactive: -9.73%
15,CCOC(=O)c1ccc(NP(C)(=O)Oc2ccccc2)cc1 (stereo not given),inactive: 0.12%
16,Cc1ccc(NP(C)(=O)Oc2ccccc2)c(C)c1 (stereo not given),inactive: 0.6%
17,COc1ccccc1OP(C)(=O)Nc1ccc(C)cc1 (stereo not given),inactive: -17.4%
18,Cc1cccc(C)c1OP(C)(N)=O (stereo not given),inactive: 11.9%
19,CC(C)(C)c1ccc(OP(C)(=O)Nc2ccc(SC(F)(F)F)cc2)cc1 (stereo not given),inactive: -3.3%
20,O=[N+]([O-])c1ccc2c(c1)C=Nc1ccccc1O2,inactive: -7.49%

row,Compound,inhibition
1,O=[N+]([O-])c1cc([N+](=O)[O-])c(Nc2cccnc2)c([N+](=O)[O-])c1,inactive: 11.1%
2,CC1=NCCc2c1[nH]c1ccccc21.O=[N+]([O-])c1cc([N+](=O)[O-])c(O)c([N+](=O)[O-])c1,inactive: -7.27%
3,O=C(O)c1cccc(Nc2c([N+](=O)[O-])cc([N+](=O)[O-])cc2[N+](=O)[O-])c1,inactive: -5.29%
4,Cc1cc(C)cc(OP(C)(=O)Nc2ccccn2)c1 (stereo not given),inactive: 5.92%
5,CP(=O)(Nc1cccc(Br)c1)Oc1ccccc1 (stereo not given),inactive: 7.54%
6,Cc1ccc(C)c(NP(C)(=O)Oc2ccccc2)c1 (stereo not given),inactive: 20%
7,Cc1cc(C)cc(OP(C)(=O)Nc2ccc(C)cc2C)c1 (stereo not given),inactive: -1.13%
8,CCOC(=O)c1ccc(NP(C)(=O)Oc2cc(C)cc(C)c2)cc1 (stereo not given),inactive: 3.42%
9,COc1ccccc1OP(C)(=O)Nc1cccc(Br)c1 (stereo not given),inactive: 9.22%
10,Cc1nc2ccc3ccccc3c2s1.O=[N+]([O-])c1cc([N+](=O)[O-])c(O)c([N+](=O)[O-])c1,inactive: 1%
11,O=[N+]([O-])c1cc([N+](=O)[O-])c(-c2cnn(-c3ccccc3)c2)c([N+](=O)[O-])c1,inactive: 1.39%
12,CN(Cc1cccnc1)C(=O)COc1ccc(Cl)c(Cl)c1.O=[N+]([O-])c1cc([N+](=O)[O-])c(O)c([N+](=O)[O-])c1,inactive: -13.5%
13,O=[N+]([O-])c1cc([N+](=O)[O-])c(-n2nnc3ccccc32)c([N+](=O)[O-])c1,inactive: 1.99%
14,CCCOc1ccc(NP(C)(=O)Oc2ccc(Cl)cc2)cc1 (stereo not given),inactive: 0.06%
15,CP(=O)(Nc1ccc(SC(F)(F)F)cc1)Oc1ccccc1 (stereo not given),inactive: 7.81%
16,COc1ccc(-c2ccccn2)cc1.O=[N+]([O-])c1cc([N+](=O)[O-])c(O)c([N+](=O)[O-])c1,inactive: -3.34%
17,CN1CCCCC1COC(=O)C1(O)c2ccccc2CCc2ccccc21 (stereo not given),inactive: 9.77%
18,COc1ccccc1OP(C)(=O)Nc1c(C)cccc1C (stereo not given),inactive: -3.27%
19,CCOC(=O)C(CC)C1=NC(C)(C)Cc2ccccc21.O=[N+]([O-])c1cc([N+](=O)[O-])c(O)c([N+](=O)[O-])c1 (stereo not given),inactive: 6.38%
20,O=[N+]([O-])c1cc([N+](=O)[O-])c(Nc2nnnn2CCO)c([N+](=O)[O-])c1,inactive: -37.3%
